Earlier results, collected in patent publication US12220497B2, “Materials and methods for decontaminating animal integument” (dated 2025).

Key:
[1] = system: rabbit; conditions: intact skin
[2] = system: rat; conditions: intact skin

Molecule	dermal LD50 (rabbit) [1] [mg/kg]	dermal LD50 (rat) [2] [mg/kg]
[N-]=[N+]=[N-]	20	–
C=CC#N	63	–
mercuric chloride	–	41
